{"source": "paper PMC7747769", "about": "(AIChE journal. American Institute of Chemical Engineers, 2019)", "key": {"[1]": {"biological_target": "DR1 (HLA-DRB1*01:01) (Homo sapiens, UniProt P01903+P01911, A100R/D57E/F55L/F60I/F76Y/I96L/L162R/M171V/P40L/Q125E/R42F/V115G/Y59C)", "assay": "MAPS peptide–MHCII binding, DR1", "settings": "flow cytometry"}, "[2]": {"tested_on": "DR1", "assay_type": "binding, human"}}}
{"substance": "DNP-PKYVKQNTLKLAT [HA306–318]", "values": [{"measurement": "DNP-positive beads (shift)", "setting": "[1]; […], anti-DNP staining", "value": 37.9, "unit": "%"}, {"measurement": "DNP staining versus empty DR1 or peptide alone", "setting": "[1]; microspheres", "value": "significantly greater DNP staining"}, {"measurement": "peptide exchange efficiency", "setting": "[2]", "value": "~100", "unit": "%"}]}
